These are literature values, as cited in US20260183305A1, “METHYLENE BLUE FOR USE IN THERAPY OF HEPATITIS B AND/OR HEPATITIS D INFECTION” (priority 2022, published 2026).

The conditions of data set [1]: 5 mg/ml solution, pH higher than 4.5; cited from earlier work.
For data set [2] the following is noted: after oral administration; cited from earlier work.
For data set [3] the following is noted: soldiers, several weeks, malaria prophylaxis; cited from earlier work.

Consider `CN(C)c1ccc2nc3ccc(N(C)C)cc3[s+]c2c1.[Cl-]` [MB, [7-(dimethylamino)phenothiazin-3-ylidene]-dimethylazanium, chloride], for which, in data set [1], the long term stability entry is given as “compromised at higher pH”. For the same molecule, in data set [2], the “time of peak plasma concentrations” value is listed as “two”. The “dose received without major side effects” value in data set [3] is “more than 400 mg of MB per day”.
